Patent publication US10821151B2, “Compositions and methods for treating cancer and persistent viral infections” (SUSAVION BIOSCIENCES, INC., priority 2015, dated 2020)

System: immune cells in the peritoneal cavity
Assay: peritoneal immune cell populations by flow cytometry after subcutaneous injection
Conditions: 1 nanomole per gram subcutaneously on day 0, 2 and 4; peritoneal lavage

## [NQHTPRGGGS]4K3-NH2 [SV6D]
  populations of DCs, NK cells, CD3+, CD4+ and CD8+ T cells, and B cells, including CD69+: increased several-fold
